Test results as given in US7348140B1, “Clinical indications for genotyping polymorphic variants of G-protein coupled receptors” (Acadia Pharmaceuticals, Inc., priority 2001, dated 2008).
Structures can show the parent of a compound that is named as a salt.

Amino acid sequences for entries named in this document (tags omitted).
UniProt P41595, whole entry: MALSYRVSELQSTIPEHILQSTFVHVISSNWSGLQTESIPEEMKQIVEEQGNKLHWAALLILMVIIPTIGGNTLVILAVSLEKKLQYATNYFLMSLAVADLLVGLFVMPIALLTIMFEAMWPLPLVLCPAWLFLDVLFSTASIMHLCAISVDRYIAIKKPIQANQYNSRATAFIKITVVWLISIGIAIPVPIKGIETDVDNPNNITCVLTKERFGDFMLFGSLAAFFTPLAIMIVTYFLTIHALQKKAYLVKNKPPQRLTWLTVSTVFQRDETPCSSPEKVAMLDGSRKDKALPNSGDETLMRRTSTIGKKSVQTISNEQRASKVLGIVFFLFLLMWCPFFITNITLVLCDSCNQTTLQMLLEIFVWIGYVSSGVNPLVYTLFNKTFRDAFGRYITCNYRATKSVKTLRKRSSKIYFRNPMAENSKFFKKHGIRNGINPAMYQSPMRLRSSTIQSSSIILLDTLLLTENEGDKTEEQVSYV

Target: serotonin 2B receptor (Arginine 388) (Homo sapiens, UniProt P41595)
Assay: cell-based

In the case of `Clc1cccc(N2CCNCC2)c1` [mCPP, 1-(3-CHLOROPHENYL)PIPERAZINE DIHYDROCHLORIDE], the EC50 is reported as 14.5 nM.
